This test concerns the target T1, Human Factor D (Homo sapiens, UniProt P00746).
T1 construct: purified from human serum; purchased Complement Technology, Inc; host or cells: human serum (natural protein, not recombinant)
The test is described as follows: Human Factor D Assay. Format: biochemical. On the procedure:
Human Factor D (purified from human serum, Complement Technology, Inc.) at 80 nM final concentration is incubated with test compound at various concentrations for 5 min at room temperature in 50 mM Tris, 1M NaCl, pH 7.5. A synthetic substrate Z-L-Lys-SBzl and DTNB (Ellman's reagent) are added to final concentrations of 100 μM each. […] IC50 values are calculated by nonlinear regression of complement Factor D reaction rates as a function of test compound concentration.

Sequences of proteins named here, by UniProt entry; tags and fusion partners are left off. Residues count along the entry.
UniProt P00746, 26-253: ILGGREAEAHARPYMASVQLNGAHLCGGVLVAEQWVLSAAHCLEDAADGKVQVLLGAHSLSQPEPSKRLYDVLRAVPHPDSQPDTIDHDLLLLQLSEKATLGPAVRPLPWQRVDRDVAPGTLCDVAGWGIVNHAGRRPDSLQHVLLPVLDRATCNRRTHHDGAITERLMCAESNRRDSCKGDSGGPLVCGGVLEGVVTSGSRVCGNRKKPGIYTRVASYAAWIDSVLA

The term IC50 denotes the concentration needed to halve the response being measured. Lower therefore signals greater potency. On to `CC(=O)c1nn(CC(=O)N2C[C@H](F)C[C@H]2CNc2cccc(Br)n2)c2ccc(-c3cnc(C)nc3)cc12` [Compound 40, 2-(3-acetyl-5-(2-methylpyrimidin-5-yl)-1H-indazol-1-yl)-1-((2S,4R)-2-(((6-bromopyridin-2-yl)amino)methyl)-4-fluoropyrrolidin-1-yl)ethan-1-one], for which the 50% inhibitory concentration (IC50) was in the range of 1 to 10 µM.

These data come from US20230022157A1 (Achillion Pharmaceuticals, Inc., priority 2018, published 2023).
